The numbers were not newly measured in paper PMC12528161, which cites them from elsewhere.

Sequences of proteins named here, by UniProt entry; tags and fusion partners are left off. Residues count along the entry.
UniProt P42081, 24-247: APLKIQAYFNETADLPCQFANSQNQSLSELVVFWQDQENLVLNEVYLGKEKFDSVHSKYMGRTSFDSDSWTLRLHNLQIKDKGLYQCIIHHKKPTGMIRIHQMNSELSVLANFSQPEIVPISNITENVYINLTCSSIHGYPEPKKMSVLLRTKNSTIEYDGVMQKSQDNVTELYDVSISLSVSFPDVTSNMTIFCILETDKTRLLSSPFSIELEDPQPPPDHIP

What is called Kd is the concentration at which binding is half-saturated.

For one series, the target named is CD86 (Homo sapiens) (UniProt P42081).
A further series addresses CD80 (Homo sapiens) (UniProt P33681).

Consider CTLA-4 (from UniProt P16410), for which the Kd with CD86 (Homo sapiens) was 2 µM; with CD80 (Homo sapiens), 0.2 µM.
